Reference: PubChem BioAssay AID2465 (Broad Institute, 2010)
Only a part is listed here, and it is no random draw. The source made the active and inactive calls. No stated cut-off is given here; in the data, active means caspase activation above about 5.9%; inconclusive means no clear call, values can overlap the other calls; inactive means below about 2.2%.

Assay: Bcl2-A1 antagonists releasing BIM, apoptosis – cell-based, luminescence, HTS, two replicates, primary screen (AID 2465)
Conditions: MEF A1-2A-BIM cells, caspase-Glo luminescence, 3 h; stronger effect = higher value; percent of clofoctol response, DMSO zero; concentration not given here
In short: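 System: mouse embryonic fibroblasts co-expressing A1 and BIM (A1-2A-BIM), primed for A1 dependence; amount: 2500 cells/well; doses: 50 nL pinned compound; schedule: cells settled overnight, compound exposure 3 h at 37 °C, 5% CO2; detection: Caspase-Glo 3/7 luminescence, 1 h at room temperature; read-out: Caspase-3/7 activation, seen as rise in luminescence signal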

**Q.** With `COc1ccc(CN2/C(=N/P(=O)(Oc3ccccc3)Oc3ccccc3)CC(C)=CC2C)cc1` (stereo not drawn) as the compound, how does the caspase activation read?
**A.** The caspase activation was inactive: -0.0411%.

**Q.** With `COc1ccc(CN2/C(=N\P(=O)(Oc3ccccc3)Oc3ccccc3)Cc3ccccc3C2C2CC2)cc1` (stereo not drawn) as the compound, how does the caspase activation read?
**A.** The caspase activation was inactive: -1.07%.

**Q.** Which caspase activation does the source give for `C=CC1C=C(C)C/C(=N\P(=O)(Oc2ccccc2)Oc2ccccc2)N1Cc1ccc(OC)cc1` (stereo not drawn) here?
**A.** The caspase activation was inactive: -0.282%.
